Binding of CDR-mutated scFvs to a peptide of the spike HR2 region

Reference: Engelhart et al. 2022, doi:10.1038/s41597-022-01779-4. File: FLAb, binding data.

All variants were tested on one target, the spike HR2 peptide PDVDLGDISGINAS (SARS-CoV-2).

The variants keep the heavy chain, the linker and the frameworks of Ab-95 (scFv order VH, a 15-residue (Gly4Ser)3 linker, VL).
VH: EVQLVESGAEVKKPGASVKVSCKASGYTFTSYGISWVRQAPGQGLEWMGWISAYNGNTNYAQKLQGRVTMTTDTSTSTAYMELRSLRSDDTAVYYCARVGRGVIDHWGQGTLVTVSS
VL: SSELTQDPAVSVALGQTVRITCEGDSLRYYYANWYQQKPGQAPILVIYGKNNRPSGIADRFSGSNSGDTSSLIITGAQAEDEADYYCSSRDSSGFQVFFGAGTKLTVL

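The library (AAYL52) carries one to three amino acid substitutions per variant, with no insertions or deletions. Affinity was read by AlphaSeq, a pooled yeast mating assay with surface-displayed partners. Pairs that bind mate more often; barcode pairs of the diploids are counted by sequencing. Read counts were normalised to the haploid input and turned into Kd by a linear fit to BCL2-family pairs of known affinity, for each replicate. Mating was done three times.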

The parent's light chain CDRs are EGDSLRYYYAN, GKNNRPS, SSRDSSGFQVF; each variant's own CDRs replace them letter for letter. The read-out is the apparent dissociation constant on a log10 scale (nM): the lower, the stronger. Averages over replicates are reported, and they cover detected replicates only. An entry "not detected" has no value in the source: the pair was not observed among the diploids in any replicate. This suggests poor binding but is not conclusive. Background: pairings of library AAYL52 with three empty control strains gave a value in 28% of cases (median 3.91, 5th percentile 2.90). Values in that range, when seen in few replicates, are hard to tell from nonspecific mating.

log10 Kd (nM), mean | detected | CDR-L1 | CDR-L2 | CDR-L3
5.49 | 1 of 3 | EGDWLRYYIAN | GKNNRPS | SKRDSSGFQVF
2.58 | 3 of 3 | EGDSLRYFYAN | GKNNRPS | SSRDSPGFQVF
4.04 | 2 of 3 | EGKSLRYYYAN | GLNNRPS | SSRDSSGFQVL
3.88 | 2 of 3 | EGSSLRYYYAN | GKNNRPS | VSRDSPGFQVF
1.76 | 3 of 3 | EGDALRYYYAN | GENNRPS | SSRDSSGFQVW
4.44 | 2 of 3 | EGDSLRYYYAN | GKKNRCS | NSRDSSGFQVF
2.50 | 3 of 3 | EGDSLRYYYAN | GKNNRPI | SSRDSSGFQDF
5.14 | 1 of 3 | EGDSLRYYYAN | HKNNRPS | SSRDWSGFIVF
3.27 | 2 of 3 | EADSLRYYYAN | GKNNRPS | SIRDSSGFQVF
not detected | 0 of 3 | EGDSLRYYYAN | GKENRPS | SSRFSSGFHVF
2.50 | 3 of 3 | EGDSLRYYYAN | GANNRPS | SSRWSWGFQVF
2.82 | 3 of 3 | EHDSLRYYYAN | GKNARPA | SSRDSSGFQVF
not detected | 0 of 3 | EGDSLRYYYAI | YKNNRPS | SSRDSSGEQVF
not detected | 0 of 3 | EGDSLRYYYAN | GKNNYPS | SSRDSSGEQGF
not detected | 0 of 3 | EGDSLRYYYAN | WKNQRQS | SSRDSSGFQVF
3.09 | 2 of 3 | EGDSFRYYEAN | GKNNCPS | SSRDSSGFQVF
2.54 | 3 of 3 | EGDSLRYYYAN | GSNNRPS | SSRNSSFFQVF
4.99 | 2 of 3 | CGDSLRYYYAN | GKNNYPW | SSRDSSGFQVF
3.41 | 3 of 3 | FGDSYRYYYAN | GKNNRPS | SSRDSSGRQVF
3.95 | 3 of 3 | EGWSLRYYYAN | GKNNRPS | SSRLSSGFQGF
2.97 | 3 of 3 | EGDSLRYYGAN | GVNCRPS | SSRDSSGFQVF
3.54 | 3 of 3 | EGDSLRWYYCN | GKNNRPS | SSRDSSWFQVF
3.46 | 1 of 3 | EGDHLRYYYAN | GKNNRSS | SQRDSSGFQVF
3.77 | 1 of 3 | EGDSLRYYYAN | YINNRPS | SSRDSSGNQVF
0.62 | 3 of 3 | EGDSLNYAYAN | GKNNRPS | SSRDSSGFQVF
3.82 | 1 of 3 | EFDSLRYYYAN | GKWNRPS | SSRQSSGFQVF
1.94 | 3 of 3 | EGQSLRYYYAN | GGNNRPG | SSRDSSGFQVF
3.09 | 2 of 3 | EGDSVRYYYAN | GGNNRPS | SSRDSSGFCVF
3.26 | 2 of 3 | EGDSLRYYYAN | GKNNRPS | SSRDSSGPPVF
3.88 | 1 of 3 | EGDSLRYYYTN | GKPNRPS | SSRDSSGNQVF
not detected | 0 of 3 | EGDSLRYYYAN | GKNNMGS | SSRDSSGFQVA
1.23 | 3 of 3 | EGDSLRAYQAN | GKNNRPS | SSRDSSGFMVF
2.91 | 3 of 3 | EGDSLRYYYAN | GKNYRPS | SSRASSGFQAF
3.91 | 1 of 3 | EPDSLRYYYAN | GKNNTPS | SSRDSSGFQVR
2.77 | 3 of 3 | EGDDLRYYLAN | GKFNRPS | SSRDSSGFQVF
4.39 | 2 of 3 | EGDSLRYYYAN | GFNWRPQ | SSRDSSGFQVF
1.71 | 3 of 3 | EGDSLRYYYDN | GKNNRPS | SSRDQHGFQVF
1.18 | 3 of 3 | EGDSLRGYYAN | GKNNRPS | SERDSSGFQVF
4.43 | 2 of 3 | EGDSLRCYYAN | GKNNRYS | SSRDSSGFQVN
0.73 | 3 of 3 | EGDSLRYGYAN | GKNNRPS | SSRSSSGTQVF
not detected | 0 of 3 | EGDSTRYYYAN | SKNNRPS | SSADSSGFQVF
3.75 | 2 of 3 | EGDDLRYYYAN | GKNFRYS | SSRDSSGFQVF
4.22 | 1 of 3 | EGDILRYYYAN | GKNNRPS | SSRDSSSFQVF
3.60 | 3 of 3 | EGDSARYYYCN | GKNNRPS | SSRDSSGFQVF
2.75 | 3 of 3 | EGDSLRYYYAN | GLGNRPS | SSRDQSGFQVF
4.10 | 1 of 3 | EMDSTRYYYAN | VKNNRPS | SSRDSSGFQVF
4.36 | 3 of 3 | EGDSLAYYYAL | GKNNRPS | SSRDSSGFQVF
3.26 | 3 of 3 | EHDSLRYYFAN | GKNNRPS | SSRDSLGFQVF
4.80 | 2 of 3 | DGDSLGYYYAN | GKMNRPS | SSRDSSGFQVF
3.93 | 1 of 3 | EGDSTLYYYAN | GKNNRPS | SSRDSSGFQFF
2.97 | 3 of 3 | EGDSLRYYYAN | GKNNRPK | SSRDSSGFQSF
4.30 | 1 of 3 | EGDSLRYYYIN | GKNNTPS | SSRDSSDFQVF
not detected | 0 of 3 | EGDCLRYYYAN | WHNNRPS | SSRDSSGFQVF
3.28 | 3 of 3 | ECDSLRMYYAN | GKNNRPS | SSRDSSGFQVF
not detected | 0 of 3 | EIDSLMYYYAN | GKNNRDS | SSRDSSGFQVF
0.81 | 3 of 3 | EGDSLRYYDAN | GKNNRPY | SSRDSSGFQVW
3.43 | 2 of 3 | EGDSLHYYYAN | GTNNRPS | SSRDSSGFQVE
2.73 | 3 of 3 | EVDSLRYYYAN | GKENRPS | SSRDSNGFQVF
not detected | 0 of 3 | EGDSLQYYYAN | GKNNRPS | SSRDSSNFEVF
3.68 | 1 of 3 | EDDSLRYYYAN | GKNNRPS | SSRDSSGFQVC
3.57 | 3 of 3 | EGDSLIYYYAN | GKNNRPS | SSRYNSGFQVF
4.14 | 1 of 3 | GGDSLRYYYAN | IKNNRPS | SSRDASGFQVF
3.48 | 3 of 3 | EGDILRYYAAN | GKNNRPS | SSRDDSGFQVF
3.91 | 1 of 3 | EGDSLRYYYAN | GINTRPS | SLRDSSGFQVF
1.93 | 3 of 3 | EGDSLRYYYAN | GKNNRPS | SSRDSSGFGLF
4.36 | 2 of 3 | EGDSLRYYYAN | GHNNRPS | SSWDSKGFQVF
0.33 | 3 of 3 | EGDSLRYYEAN | GKNNRPS | MSRDSSGFQVF
2.81 | 3 of 3 | EGDGNRYYYAY | GKNNRPS | SSRDSSGFQVF